From publication PMC4291147, “Molecular Basis of Histone Tail Recognition by Human TIP5 PHD Finger and Bromodomain of the Chromatin Remodeling Complex NoRC” (Structure(London, England:1993), 2015) come the findings set out here.

The structures appear in SMILES notation.

For this assay, the target named is T1, TIP5 BRD (Homo sapiens, UniProt Q9UIF9).
T1 construct: (residues 1797- 1899 for TIP5, residues); hexa-histidine (pNIC28-Bsa4, TEV site) (N, cleaved yes); made in house; host or cells: E. coli BL21(DE3) Rosetta or BL21(DE3)-R3-pRARE2
T1 sequence (Q9UIF9 1797-1899): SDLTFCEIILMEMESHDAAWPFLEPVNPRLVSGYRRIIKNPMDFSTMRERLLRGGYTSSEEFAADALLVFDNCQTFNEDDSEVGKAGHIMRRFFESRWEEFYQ
Nature of the assay: ITC, histone peptide binding to TIP5 BRD. As for the experimental part:
All calorimetric experiments were performed on an ITC200 or VP-ITC microcalorimeters (MicroCal). […] The data were analyzed with the MicroCal ORIGIN software package using, in most cases, a single binding site model. The first data point was excluded from the analysis. […]
The cDNAs encoding tandem PHD zinc finger and bromodomain of human TIP5 […]
GeneBank: Q9UIF8) were synthesized by GenScript with codons optimized f or E. coli. expression and were subcloned into a modif ied pET15 vector using NdeI/XhoI sites f or expression as recombinant proteins with a His6 tag fused with small ubiquitin like modifier (SUMO)-1 fusion tag at the N terminus. cDNA sequences were used as a […]
Single PHD zinc f ingers were introduced into the same modif ied SUMO tagged plasmid whereas single bromodomains were f urther subcloned into pET28 derived expression vectors, pNIC28- Bsa4 using ligation independent […]
Protein Expression and Purification […]
competent BL21(DE3) Rosetta cells (Invitrogen) or into BL21 (DE3)-R3-pRARE2 cells (phage- resistant derivative with a pRARE plasmid encoding rare codon tRNAs). Cells were grown at 37 °C in Terrific Broth (Sigma) from overnight cultures until A600 reached between 0.6- 0.8, then the media was cooled and 0.2 mM isopropyl-β-Dthiogalactopyranoside (IPTG) was added to induce the protein expression at 20 °C f or 16 hours. […]
(In general: In ITC the heat of successive injections is recorded.)

`CC(=O)NCCCC[C@H](NC(=O)CNC(=O)CNC(=O)[C@H](CCCCNC(C)=O)NC(=O)CNC(=O)[C@H](CCCNC(=N)N)NC(=O)CNC(=O)[C@@H](N)CO)C(=O)NCC(=O)N[C@@H](CC(C)C)C(=O)O` [H4(1–10)K5acK8ac] displayed a Kd of 65.91 ± 0.46 µM.

The Kd is the concentration at which binding is half-saturated. Read a low Kd as a tighter complex.
